{
  "source": "patent US7033582B2",
  "about": "(Teva Pharmaceutical Industries, Ltd., priority 2000, dated 2006)",
  "key": {"[1]": {"system": "MMP-9 production by T lymphocytes", "assay": "MMP-9 production by anti-CD3 activated T lymphocytes (zymography of conditioned medium)", "type": "cell-based, human", "conditions": "1000 IU/ml recombinant interferon β-1b", "description": "Heparinized blood was collected from normal volunteers, and subjected to Ficoll-Hypaque (Pharmacia Biotech, Mississauga, Ontario) centrifugation to obtain peripheral blood mononuclear cells (PEMNCs) as described previously (15). After two washes, cells were suspended at a density of 1–2 million/ml in horizontal T-25 flasks (Nunc, Becton Dickinson, Mississauga, Ontario) in the serum free medium, AIM-V (GIBCO/BRL), to which 1 ng/ml of an anti-CD3 antibody (OKT3, compliments of Jack Antel, Montreal, Canada) was added. Three hours after the anti-CD3 addition, the T-25 flasks were stood upright from their horizontal position in order to […] monocytes that had adhered. Floating cells, which were mostly lymphocytes, were left for a period of 72 hours at 37° C. […] Henceforth, given that the majority of cells in the MNC population are T lymphocytes, these will be referred to as T lymphocytes.\n(§1) Cells were left for 69 h at 37° C., then collected, counted and resuspended in fresh AIM-V at density of 500,000 cells per ml. […] Thereafter, 500 μl (250,000 cells) of the suspension was taken for migration assays described below. Alternatively, 100 μl (50,000 cells) of cell suspension was added to each individual well of a 96-well plate already containing microglia or U937 monocytoid cells (see below)."}, "MMP-9": {"system": "MMP-9", "assay": "MMP enzyme activity in gelatin zymography, test agent in wash and reaction buffer", "type": "biochemical, Baby Hamster Kidney (BHK) cells and human T lymphocytes", "conditions": "agent in incubation buffers during zymogram development; MMP-9 from BHK cells or T lymphocytes", "source_text": "The analysis of cell conditioned medium in zymography is a reflection of the amount of MMPs that was produced by the particular culture. […] An inhibitor of MMP activity prevents gelatin degradation by gelatinases and the resultant size of the band of gelatinases would be smaller as compared to that obtained in the absence of inhibitors."}, "T lymphocytes": {"system": "T lymphocytes", "assay": "Migration assay across fibronectin-coated Boyden chamber", "type": "cell-based, human", "conditions": "3 days treatment, 1000 IU/ml", "description": "as §1\nTo address the migration capacity of T lymphocytes, 2×10^5 T lymphocytes in 500 μl of 2.5% fetal calf serum (FCS) containing AIM-V were seeded into the top compartment of a Boyden chamber (Collaborative Biomedical Products, Bedford, Md.). This chamber consists of two compartments separated by a polycarbonate membrane filter (9 mm in diameter, with 3 μm pores) precoated on its upper surface with fibronectin. Fibronectin was employed to simulate the basal lamina.\nThe bottom compartment of the migration chamber contained 10% FCS-supplemented AIM-V; the higher concentration of FCS in the bottom chamber served as a directional gradient (77). After 5 h at 37° C., the content of the lower chamber was collected, and the number of migrated T lymphocytes was counted with the Coulter Counter Z1."}},
  "data": [
    {"substance": "IFNβ-1b: recombinant interferon β-1b, used as positive control", "values": [
      {"measurement": "production of MMP-9 by T lymphocytes compared to controls", "setting": "[1]", "result": "produced less MMP-9"},
      {"measurement": "production of MMP-9 by T lymphocytes compared to controls", "setting": "[1]; listed as Interferon β", "result": "inhibited"},
      {"measurement": "inhibition of MMP-9 enzymatic activity (size of gelatinase band in zymogram)", "setting": "MMP-9", "result": "not a direct MMP activity inhibitor"},
      {"measurement": "decrease of T lymphocyte migration", "setting": "T lymphocytes", "result": "20–50%"}
    ]}
  ]
}
